1 substance from patent US20080293070A1, “Markers for Memory T Cells and Uses Thereof” (priority 2005, published 2008) can be followed below.

Several values for one entry are separate records, joined by “and”; a condition that tells them apart may be missing. Identical values can stand only once.

For one experiment, the system named is pSTAT5a (Y694). As to the kind of experiment: STAT5a phosphorylation in TCM and TEM in response to IL-2 or IL-7, flow cytometry. In kind it is cell-based, human. As to conditions: IL-2 100 U/ml, 15 min. How it is done: FIG. 5. […] (A) PIM-1 and PIM-2 proteins levels in ex-vivo sorted TCM and TEM subsets. […] (B, C and D) PBMCs from healthy donors were treated with IL-2 (100 U/ml) or IL-7 (10 ng/ml) for 15 min at 37° C. Cells were then labeled with Abs to CD4, CD27, CCR7, CD45RA and pSTAT5a. (B) Representative example of pSTAT5a expression levels. TCM-gated cells are represented in light grey and TEM-gated cells are represented in black. (C) Mean Fluorescence Intensity (MFI) of pSTAT5a level of expression measured in response to IL-2 or IL-7, in TCM and TEM (n=4). Mean pSTAT5a signal values are represented by black bars. P-values (determined by a two-tailed T-test) are shown (D) Expression level of CD127, CD25 and CD132 in ex-vivo TCM and TEM. PBMCs were labeled with Abs to CD4, CD27, CCR7 and CD45RA to identify T cells subsets in conjunction with anti-CD127 or anti-CD25 specific Abs. […]
STAT5a is a downstream effector of yc cytokines (Nosaka, T. et al., 1999. Embo J 18:4754-4765). […] Because of the importance of the STAT5a pathway in the regulation of T-cell survival (Nosaka, T. et al., supra), we evaluated the ability of IL-2 and IL-7 to trigger the STAT5a signaling pathway in CD4^+ T cell memory subsets. The phosphorylated form of STAT5a (Y694) (pSTAT5a) was quantified by flow cytometry. […]
A general note: A flow cytometer gives signals particle by particle.

Experiment [1] relates to pFOXO3a (S253, S315 and T32). As to the kind of experiment: FOXO3a phosphorylation in CD4+ T cells in response to TCR and cytokine engagement, Western blot. In kind it is cell-based, human. As to conditions: 30 min, IL-7 10 ng/ml, IL-2 100 U/ml. The protocol: FIG. 9. FOXO3a phosphorylation is induced by TCR and cytokine engagement. (A) CD4^+ T cells were cultured in the presence of anti-CD3 (2 μg/ml), anti-CD28 (2 μg/ml), anti-CD3+CD28, IL-2 (100 U/ml), IL-7 (10 ng/ml), IFN-γ (50 μg/ml) or PMA (50 ng/ml) for 15 min and analyzed by Western Blot for pFOXO3a (S315 and S253) expression levels. The results are representative of two independent experiments. (B) CD4^+ T cells were cultured in the presence of anti-CD3/anti-CD28, IL-2 (100 U/ml), IL-7 (10 ng/ml) for 30 min and analyzed by Western Blot for pFOXO3a (T32) expression levels.
Western Blotting analysis. TCM and TEM were sorted as described above. […] HRP activity was detected using an enhanced chemiluminescence detection procedure (ECL-plus detection system, Amersham Biosciences). […] Protein expression levels were expressed as a percentage of the highest signals obtained.
To identify the signals that trigger FOXO3a phosphorylation in CD4^+ T cells, we quantified the levels of pFOXO3a (S253, S315 and T32) in response to CD3 and/or CD28 cross-linking, as well as IL-2, IL-7, IFN-γ and PMA treatment. pFOXO3a (S253) was easily detectable in ex-vivo CD4^+ T cells, and none of the tested stimuli induced significant changes in the expression level of this phosphorylated form of FOXO3a (FIG. 9A). […]
Background: A western blot detects proteins with antibodies after separation by electrophoresis.

As to IL-2: Recombinant human IL-2, the “proportion of cells showing phosphorylated STAT5a” value was 90-100% and 100% with pSTAT5a (Y694) (TCM); 50-60% with pSTAT5a (Y694) (TEM). For the same substance, the “levels of pFOXO3a at T32” value in experiment [1] was “No induction”.
